Test: Human liver mitochondrial fraction intrinsic clearance
Format: in vitro ADME
Conditions: 0.5 mg/mL human liver mitochondrial fraction
Experimental: Human Liver Mitochondrial (HLMt) fractions contain high quantities of MAO enzymes and therefore, provide a useful model system to measure the clearance of MAO substrates.
A series of investigations using HLMts were conducted to assess the effect of MAO on the metabolism of DMT and deuterated DMT analogues in vitro.

[2H]C([2H])([2H])N(C([2H])([2H])[2H])C([2H])([2H])Cc1c[nH]c2ccccc12 [SPL028viii, α,α,bis-deuterio-N,N-hexadeuterio-dimethyltryptamine]
Half-life: 2.128 h
